ChEMBL document CHEMBL4425144, “Discovery and Structural Optimization of N5-Substituted 6,7-Dioxo-6,7-dihydropteridines as Potent and Selective Epidermal Growth Factor Receptor (EGFR) Inhibitors against L858R/T790M Resistance Mutation” (J Med Chem, 2016)

Species: Homo sapiens
Experiment: Selectivity index, ratio of inhibition of EGF-induced EGFR kinase domain phosphorylation in human NCI-H1975 cells at 1000 nM to inhibition of EGF-induced EGFR kinase domain L858R/T790M mutant phosphorylation in human NCI-H1975 cells at 1 to 1000 nM
Type: cell-based

**Q.** C=CC(=O)Nc1cccc(-n2c(=O)c(=O)n(C(C)C)c3cnc(Nc4ccc(N5CCN(C)CC5)cc4OC)nc32)c1 was tested. Which Ratio did it give?
**A.** The Ratio was 10.

Species: Homo sapiens
Experiment: Selectivity index, ratio of IC50 for wild type EGFR kinase domain (unknown origin) to IC50 for EGFR kinase domain L858R/T790M mutant (unknown origin)

**Q.** How did the Ratio IC50 turn out when C=CC(=O)Nc1cccc(-n2c(=O)c(=O)n(C(C)C)c3cnc(Nc4ccc(N5CCC(N6CCN(C)CC6)CC5)cc4OC)nc32)c1 was run?
**A.** Its Ratio IC50 is 3.6.

**Q.** C=CC(=O)Nc1cccc(-n2c(=O)c(=O)n(CCC)c3cnc(Nc4ccc(N5CCN(C)CC5)cc4OC)nc32)c1 was tested. Which Ratio IC50 did it give?
**A.** Its Ratio IC50 is 3.7.

**Q.** C=CC(=O)Nc1cccc(-n2c(=O)c(=O)n(CC)c3cnc(Nc4ccc(N5CCN(C)CC5)cc4OC)nc32)c1 was tested. Which Ratio IC50 did it give?
**A.** Its Ratio IC50 is 67.

**Q.** For C=CC(=O)Nc1cccc(-n2c(=O)c(=O)n(C(C)C)c3cnc(Nc4ccc(N(C)CCN(C)C)cc4OC)nc32)c1, which Ratio IC50 is on record?
**A.** Its Ratio IC50 is 1.4.

**Q.** For C=CC(=O)Nc1cccc(-n2c(=O)c(=O)n(C(C)C)c3cnc(Nc4ccc(N5CCN(C)CC5)c(OC)c4)nc32)c1, which Ratio IC50 is on record?
**A.** Its Ratio IC50 is 6.6.

**Q.** Which Ratio IC50 does the source give for C=CC(=O)Nc1cccc(-n2c(=O)c(=O)n(C)c3cnc(Nc4ccc(N5CCN(C)CC5)cc4OC)nc32)c1 here?
**A.** The Ratio IC50 was 101.

**Q.** How did the Ratio IC50 turn out when C=CC(=O)Nc1cccc(-n2c(=O)c(=O)[nH]c3cnc(Nc4ccc(N5CCN(C)CC5)cc4OC)nc32)c1 was run?
**A.** The Ratio IC50 was 1.1.

**Q.** Which Ratio IC50 does the source give for C=CC(=O)Nc1cccc(-n2c(=O)c(=O)n(C(C)C)c3cnc(Nc4ccc(N5CCN(C)CC5)cc4OC)nc32)c1 here?
**A.** Its Ratio IC50 is 6.7.
